AlphaSeq binding of Ab-95 light chain variants to a spike HR2 peptide

Data: MIT Lincoln Laboratory AlphaSeq set, Engelhart et al. 2022, doi:10.1038/s41597-022-01779-4, as distributed in FLAb.

Target peptide (SARS-CoV-2 spike, HR2 region): PDVDLGDISGINAS

The variants keep the heavy chain, the linker and the frameworks of Ab-95 (scFv order VH, three GGGGS repeats, VL).
VH: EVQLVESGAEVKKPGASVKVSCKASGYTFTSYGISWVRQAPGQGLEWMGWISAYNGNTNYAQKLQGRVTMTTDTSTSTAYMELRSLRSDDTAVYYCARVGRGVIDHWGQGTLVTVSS
VL: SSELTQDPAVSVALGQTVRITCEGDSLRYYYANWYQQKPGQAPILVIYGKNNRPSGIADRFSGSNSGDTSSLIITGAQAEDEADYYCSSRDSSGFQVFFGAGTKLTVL

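AAYL52 was designed without a model: most single CDR substitutions and a random sample of double and triple ones. In AlphaSeq, yeast of one mating type display the scFv and yeast of the other type display the target. Binding brings cells together so that they mate, and sequencing counts the barcode pairs among the diploids. A regression on co-assayed BCL2-family reference pairs converts the normalised counts of each replicate to an apparent Kd. There are three technical replicates.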

Positions count from residue 1 of the parent VL; D25K puts K in place of D.
All variants listed here change S55 of the VL, counted from its first residue.
Numbers give log10(Kd / nM), so 0 is 1 nM and 3 is 1 µM. Smaller is tighter.
Replicates are averaged; those with no signal do not enter the mean.
In this assay the parent's reference entry averaged 2.31; its copy inside this library read 2.25.

With D25K/N33W/S55D the result was 4.31 (1 of 3 replicates). With P54L/S55V/F98D the result was 4.69 (1 of 3 replicates). Variant S26Y/S55K/F95A gave 2.83 (2 of 3 replicates). For E23K/A32V/S55I, the assay gave 2.21 (3 of 3 replicates). Variant S55H/S92N/Q96E gave 2.60 (3 of 3 replicates).

With L27A/R53S/S55H the result was 4.16 (1 of 3 replicates). For D25L/Y30I/S55P, the assay gave 2.69 (3 of 3 replicates). Variant E23H/R28G/S55G showed 1.66 (3 of 3 replicates). For R28V/Y30M/S55Y, the assay gave 3.06 (3 of 3 replicates). With S55T/S89N/S92T the result was 2.98 (3 of 3 replicates).

Variant G24V/D25F/S55W gave 3.35 (3 of 3 replicates). Variant S26Y/Y29H/S55V showed 2.30 (3 of 3 replicates). Variant D25C/Y31H/S55N gave 3.61 (3 of 3 replicates). For R53S/S55Y/S92L, the assay gave 3.95 (2 of 3 replicates). With N33T/S55W/V97A the result was 4.38 (1 of 3 replicates).

Variant S55V/R90V/D91H gave 1.71 (3 of 3 replicates). With N51Q/P54V/S55C the result was 4.41 (1 of 3 replicates). Variant S26W/G49M/S55E showed 4.07 (3 of 3 replicates). Variant G49C/S55F/Q96W showed 3.93 (2 of 3 replicates). Variant Y31T/S55Q/R90W gave 4.74 (1 of 3 replicates).

For R28T/A32G/S55W, the assay gave 4.08 (1 of 3 replicates). With N51R/S55F/S92N the result was 5.09 (2 of 3 replicates). Variant Y29A/N33Y/S55N gave 3.94 (1 of 3 replicates). Variant Y31I/S55G/S92C showed 2.65 (3 of 3 replicates). For Y31C/A32S/S55P, the assay gave 3.67 (3 of 3 replicates).

For E23G/S55Y/S89F, the assay gave 2.83 (2 of 3 replicates). For A32S/N51P/S55H, the assay gave 3.40 (1 of 3 replicates). With G24R/S55G/V97S the result was 4.36 (2 of 3 replicates). With S55V/G94I the result was 1.83 (3 of 3 replicates). With S55Q/S92Y/F98W the result was 2.25 (3 of 3 replicates).

Variant S55V/R90N gave 2.29 (3 of 3 replicates). For S55W/S93D/F95H, the assay gave 3.03 (1 of 3 replicates). Variant N52A/S55I/D91T gave 3.43 (3 of 3 replicates). For S26Y/S55C, the assay gave 2.87 (3 of 3 replicates). Variant S55H showed 2.28 (3 of 3 replicates).

For S55Y/D91V/F95Y, the assay gave 4.04 (1 of 3 replicates). For K50Y/R53G/S55C, the assay gave 4.96 (1 of 3 replicates). Variant K50Q/S55D/Q96T gave 1.43 (3 of 3 replicates). Variant Y29I/N33A/S55L gave 4.77 (2 of 3 replicates). For G24L/A32W/S55G, the assay gave 3.93 (2 of 3 replicates).

Variant Y30Q/A32H/S55V showed 2.66 (3 of 3 replicates). Variant Y29R/N33F/S55D showed 1.99 (3 of 3 replicates). Variant S55H/F98N showed 3.51 (2 of 3 replicates). Variant N51V/S55M/R90A showed 4.93 (1 of 3 replicates).

5 of these entries, quoted again:

| changes | mean, log10 nM | seen in |
|---|---|---|
| P54L/S55V/F98D | 4.69 | 1/3 |
| S55W/S93D/F95H | 3.03 | 1/3 |
| K50Y/R53G/S55C | 4.96 | 1/3 |
| S26W/G49M/S55E | 4.07 | 3/3 |
| E23G/S55Y/S89F | 2.83 | 2/3 |

Nonspecific signal, from three strains lacking the peptide, appeared in 28% of pairings of library AAYL52, centred on 3.91 (5% of these signals below 2.90); values are not corrected for it.